This data set can be described thus: UV-vis spectroscopy of enabler interaction with PVP (absorbance at 236 nm). It counts as physicochemical.

Among the data in US12685983B2, “Benefit agent delivery system” (ITC Limited, priority 2020, dated 2026) are Absorbance values, retold here.

Structures are written as SMILES.

Turning to `OCCN(CCO)CCO`, the Absorbance by setting is: (enabler 6.7 ppm with PVP in 95% v/v ethanol) −0.001; (enabler 10 ppm with PVP in 95% v/v ethanol) 0.290.
